This is an account of results in patent US20030153539A1, “Method to potentiate the therapeutic efficacy of taxane and derivatives thereof” (priority 2000, published 2003).

By UniProt entry, the sequences of proteins in these tests, tags left out.
UniProt P05177, whole entry: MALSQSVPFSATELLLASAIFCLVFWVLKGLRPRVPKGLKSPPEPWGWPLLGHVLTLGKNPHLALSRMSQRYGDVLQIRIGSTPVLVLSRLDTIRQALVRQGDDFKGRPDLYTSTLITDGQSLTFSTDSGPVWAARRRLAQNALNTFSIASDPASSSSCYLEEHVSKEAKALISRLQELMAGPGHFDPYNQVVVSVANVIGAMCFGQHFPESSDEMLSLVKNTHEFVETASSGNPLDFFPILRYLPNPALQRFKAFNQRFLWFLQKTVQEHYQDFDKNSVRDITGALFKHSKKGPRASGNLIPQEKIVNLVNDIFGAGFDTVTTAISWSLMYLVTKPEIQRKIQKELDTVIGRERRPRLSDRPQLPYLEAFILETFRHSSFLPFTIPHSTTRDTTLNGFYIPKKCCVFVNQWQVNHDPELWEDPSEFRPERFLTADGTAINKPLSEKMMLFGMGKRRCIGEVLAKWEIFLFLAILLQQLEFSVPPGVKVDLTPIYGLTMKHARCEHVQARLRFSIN
UniProt P11712, whole entry: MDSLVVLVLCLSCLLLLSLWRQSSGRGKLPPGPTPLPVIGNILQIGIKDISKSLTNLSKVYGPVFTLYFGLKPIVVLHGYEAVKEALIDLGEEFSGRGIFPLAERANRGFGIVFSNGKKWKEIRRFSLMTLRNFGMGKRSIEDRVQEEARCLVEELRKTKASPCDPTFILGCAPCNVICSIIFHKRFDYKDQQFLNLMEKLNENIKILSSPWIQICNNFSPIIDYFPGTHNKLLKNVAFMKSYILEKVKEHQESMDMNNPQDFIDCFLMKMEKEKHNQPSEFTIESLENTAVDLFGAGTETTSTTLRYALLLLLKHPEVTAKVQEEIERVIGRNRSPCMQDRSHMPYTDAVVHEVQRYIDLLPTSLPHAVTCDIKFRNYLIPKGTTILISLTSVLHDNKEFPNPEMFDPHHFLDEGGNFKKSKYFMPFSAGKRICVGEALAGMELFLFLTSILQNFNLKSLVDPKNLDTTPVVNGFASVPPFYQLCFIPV
UniProt P33261, whole entry: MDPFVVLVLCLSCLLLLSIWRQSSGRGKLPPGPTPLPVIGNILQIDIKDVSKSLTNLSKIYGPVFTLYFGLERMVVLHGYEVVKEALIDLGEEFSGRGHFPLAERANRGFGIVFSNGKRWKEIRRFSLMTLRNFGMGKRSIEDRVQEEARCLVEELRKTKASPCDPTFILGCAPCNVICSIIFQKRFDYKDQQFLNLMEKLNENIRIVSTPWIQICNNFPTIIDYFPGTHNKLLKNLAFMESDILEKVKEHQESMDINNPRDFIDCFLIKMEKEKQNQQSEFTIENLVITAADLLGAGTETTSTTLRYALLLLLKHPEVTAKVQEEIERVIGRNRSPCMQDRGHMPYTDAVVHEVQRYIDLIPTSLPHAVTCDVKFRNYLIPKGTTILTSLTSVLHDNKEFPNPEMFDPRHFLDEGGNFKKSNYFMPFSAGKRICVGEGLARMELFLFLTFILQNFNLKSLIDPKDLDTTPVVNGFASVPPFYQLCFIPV
UniProt P10635, whole entry: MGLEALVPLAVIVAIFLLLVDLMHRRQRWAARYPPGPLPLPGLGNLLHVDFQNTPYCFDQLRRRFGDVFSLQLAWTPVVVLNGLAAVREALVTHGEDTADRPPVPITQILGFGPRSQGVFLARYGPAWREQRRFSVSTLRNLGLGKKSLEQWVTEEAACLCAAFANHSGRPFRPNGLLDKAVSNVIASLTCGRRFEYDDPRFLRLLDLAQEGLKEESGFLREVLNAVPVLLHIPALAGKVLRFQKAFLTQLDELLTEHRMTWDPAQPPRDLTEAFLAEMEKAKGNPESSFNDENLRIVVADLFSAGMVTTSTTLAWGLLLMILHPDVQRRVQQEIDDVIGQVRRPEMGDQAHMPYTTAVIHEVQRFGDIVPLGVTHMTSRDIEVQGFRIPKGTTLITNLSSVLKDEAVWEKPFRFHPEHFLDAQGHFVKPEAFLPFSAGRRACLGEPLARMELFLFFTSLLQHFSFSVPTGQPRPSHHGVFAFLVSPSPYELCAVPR
UniProt P08684, whole entry: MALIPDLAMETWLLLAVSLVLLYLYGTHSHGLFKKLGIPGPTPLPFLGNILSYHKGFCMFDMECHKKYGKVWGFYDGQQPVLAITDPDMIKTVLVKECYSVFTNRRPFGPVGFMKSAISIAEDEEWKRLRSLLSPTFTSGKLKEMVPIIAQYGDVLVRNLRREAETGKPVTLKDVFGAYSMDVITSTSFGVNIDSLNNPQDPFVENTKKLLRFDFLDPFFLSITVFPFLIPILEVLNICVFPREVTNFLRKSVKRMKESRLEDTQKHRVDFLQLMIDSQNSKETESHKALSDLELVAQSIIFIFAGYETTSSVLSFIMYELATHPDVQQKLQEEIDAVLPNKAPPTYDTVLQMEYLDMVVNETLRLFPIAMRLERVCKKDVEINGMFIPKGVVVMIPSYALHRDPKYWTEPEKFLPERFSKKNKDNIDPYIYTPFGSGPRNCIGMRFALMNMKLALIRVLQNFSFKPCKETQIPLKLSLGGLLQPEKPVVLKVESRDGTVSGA

Settings in all cases: control 100%, mean of n=3
One series has as its target CYP1A2 (Homo sapiens, UniProt P05177). The series is described as follows: In vitro inhibition of cDNA expressed human CYP1A2 (chlorzoxazone substrate, radio-HPLC). The procedure: (§1) All incubations were conducted in triplicate.
(§2) See table 2 for HPLC mobile phase conditions.

A further series has as its target CYP2C9 (Homo sapiens, UniProt P11712). In words: In vitro inhibition of cDNA expressed human CYP2C9 (diclofenac substrate, radio-HPLC). The procedure: as §1, §2
The next series concerns the target CYP2C19 (Homo sapiens, UniProt P33261). The series is described as follows: In vitro inhibition of cDNA expressed human CYP2C19 ((S)-mephenytoin substrate, radio-HPLC). The procedure: as §1, §2
The target in a further series is CYP2D6 (Homo sapiens, UniProt P10635). The series is described as follows: In vitro inhibition of cDNA expressed human CYP2D6 (delavirdine substrate, radio-HPLC). The procedure: as §1, §2
The next series deals with CYP3A4 (Homo sapiens, UniProt P08684). In words: In vitro inhibition of cDNA expressed human CYP3A4 (testosterone substrate, radio-HPLC). The procedure: as §1, §2

Regarding `C[C@]12CC[C@@H]3c4ccc(OC(=O)N(CCCl)CCCl)cc4CC[C@H]3[C@@H]1CC[C@@H]2OP(=O)(O)O` [Estramustine phosphate, estramustine phosphate, reference compound], the “percentage of activity remaining in the presence of the compound” value on CYP1A2 (CYP1A2, compound at 10 μM) is given as 99.8%; at CYP1A2 (CYP1A2, compound at 100 μM), 61.3%; on CYP2C9 (CYP2C9, compound at 10 μM) it was 88.6%; on CYP2C9 (CYP2C9, compound at 100 μM), 71.6%; on CYP2C19 (CYP2C19, compound at 10 μM) it was 93.9%; on CYP2C19 (CYP2C19, compound at 100 μM), 87.5%. Also, the “percentage of activity remaining in the presence of the compound” value on CYP2D6 (CYP2D6, compound at 10 μM) was found to be 87.1%; at CYP2D6 (CYP2D6, compound at 100 μM) it was 70.7%; at CYP3A4 (CYP3A4, compound at 10 μM), 80.7%; on CYP3A4 (CYP3A4, compound at 100 μM), 47.9%.
